Patent publication US11306078B2

By UniProt entry, the sequences of proteins in these tests, tags left out.
UniProt P25106, whole entry: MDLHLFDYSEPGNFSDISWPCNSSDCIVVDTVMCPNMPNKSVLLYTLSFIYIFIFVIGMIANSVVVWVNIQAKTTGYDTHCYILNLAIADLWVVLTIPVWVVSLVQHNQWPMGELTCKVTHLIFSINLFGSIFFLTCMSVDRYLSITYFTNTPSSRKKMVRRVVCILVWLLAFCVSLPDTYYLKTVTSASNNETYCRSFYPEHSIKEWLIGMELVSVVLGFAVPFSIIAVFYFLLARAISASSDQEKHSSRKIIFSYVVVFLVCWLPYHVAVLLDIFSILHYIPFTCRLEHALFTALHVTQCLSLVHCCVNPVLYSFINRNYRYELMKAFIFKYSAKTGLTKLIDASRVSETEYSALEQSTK

Target: human chemokine receptor CXCR7 (Homo sapiens (Human), UniProt P25106)
Assay: Tango CXCR7-bla U2OS beta-arrestin recruitment assay (beta-lactamase reporter, FRET), antagonism of CXCL12/SDF1-α;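 further: compounds preincubated 15 min before CXCL12 addition, then 22 h at 37 °C, FRET emission ratio read with CCF4-AM substrate after 2 h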
Type: cell-based
Conditions: antagonistic effect on CXCR7; Tango CXCR7-bla U2OS cells, CXCL12/SDF1-α at its EC80

O=C(N[C@H]1CCN(CC2(F)CC2)C[C@@H]1C(=O)NC1(c2ncccn2)CC1)c1ncc(-c2ccc(F)cc2F)o1
IC50: 396 nM
